The chains behind the UniProt entries cited, without tags or fusion partners. Where a name states a change or a piece, a line headed by the entry shows the natural chain unless it says otherwise.
UniProt P11229: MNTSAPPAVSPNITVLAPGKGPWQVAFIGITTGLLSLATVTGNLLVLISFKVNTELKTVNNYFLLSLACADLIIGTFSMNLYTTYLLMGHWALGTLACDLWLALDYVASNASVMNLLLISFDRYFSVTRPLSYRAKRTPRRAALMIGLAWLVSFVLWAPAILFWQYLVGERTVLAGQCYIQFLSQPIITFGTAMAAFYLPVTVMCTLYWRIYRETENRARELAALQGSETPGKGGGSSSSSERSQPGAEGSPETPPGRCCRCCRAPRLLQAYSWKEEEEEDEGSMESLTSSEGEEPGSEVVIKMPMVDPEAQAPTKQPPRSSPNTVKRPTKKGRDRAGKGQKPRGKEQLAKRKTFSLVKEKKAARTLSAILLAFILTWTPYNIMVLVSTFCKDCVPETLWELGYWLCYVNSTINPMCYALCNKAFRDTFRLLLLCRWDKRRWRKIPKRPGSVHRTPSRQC
UniProt P08173, whole entry: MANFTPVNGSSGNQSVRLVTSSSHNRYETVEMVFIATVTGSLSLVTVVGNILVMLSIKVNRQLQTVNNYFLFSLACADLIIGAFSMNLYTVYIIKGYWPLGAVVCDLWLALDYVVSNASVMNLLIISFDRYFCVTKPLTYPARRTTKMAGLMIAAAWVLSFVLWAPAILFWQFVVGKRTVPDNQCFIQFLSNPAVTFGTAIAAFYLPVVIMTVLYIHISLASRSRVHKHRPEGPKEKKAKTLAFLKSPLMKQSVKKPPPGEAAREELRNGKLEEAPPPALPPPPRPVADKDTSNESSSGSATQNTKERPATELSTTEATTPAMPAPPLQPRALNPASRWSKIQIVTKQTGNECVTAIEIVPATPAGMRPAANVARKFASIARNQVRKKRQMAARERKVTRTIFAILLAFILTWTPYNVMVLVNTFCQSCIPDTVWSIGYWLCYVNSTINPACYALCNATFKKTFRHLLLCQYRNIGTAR

According to patent publication US20090263341A1, “SOFT ANTICHOLINERGIC ESTERS” (priority 2005, published 2009):

Key:
[1] = target: cloned human muscarinic receptor subtype M1 (Homo sapiens, UniProt P11229); experiment: Receptor binding, [3H]NMS, cloned human muscarinic receptor M1
[2] = target: T1, cloned human muscarinic receptor subtype M4 (Homo sapiens, UniProt P08173); experiment: Receptor binding, [3H]NMS, cloned human muscarinic receptor M4
T1 construct: purchased Applied Cell Science Inc. (Rockville, Md.)

C[N+]1(C)CCC(OC(=O)C(O)(c2ccccc2)C2CCCC2)C1.[Br-] (mixture of isomers) [glycopyrrolate, 3-(2-cyclopentyl-2-phenyl-2-hydroxyacetoxy)-1,1-dimethylpyrrolidinium bromide, reference compound] was tested, and the Ki [1] was 0.174 nM and the Ki [2] was 0.126 nM.
